In ChEMBL document CHEMBL4665801, “Pyrazole-Based Lactate Dehydrogenase Inhibitors with Optimized Cell Activity and Pharmacokinetic Properties” (J Med Chem, 2020):

What was measured:
[1] = Selectivity ratio of IC50 for inhibition of porcine heart MDH to IC50 for inhibition of recombinant human LDHA
[2] = Selectivity ratio of IC50 for inhibition of porcine heart MDH to IC50 for inhibition of recombinant human LDHB

Structure (SMILES)	Ratio IC50 [1]	Ratio IC50 [2]
NS(=O)(=O)c1ccc(Cc2c(-c3ccc(F)c(-c4ccccc4)c3)nn(-c3nc(C(=O)O)cs3)c2CC2CC2)cc1F	> 2500	> 2500
NS(=O)(=O)c1ccc(Cc2c(-c3ccc(F)c(C#CC4CCOC4)c3)nn(-c3nc(C(=O)O)cs3)c2CC2CC2)cc1F (stereo not drawn)	> 2500	> 2500
NS(=O)(=O)c1ccc(Cc2c(-c3ccc(F)c(C#Cc4cccs4)c3)nn(-c3nc(C(=O)O)cs3)c2CC2CC2)cc1F	> 2500	> 2500
NS(=O)(=O)c1ccc(Cc2c(-c3cccc(C#Cc4ccc(C5CC5)s4)c3)nn(-c3nc(C(=O)O)cs3)c2CCC2CC2)cc1F	> 2500	> 2500
NS(=O)(=O)c1ccc(Cc2c(-c3cccc(-c4ccccc4)c3)nn(-c3nc(C(=O)O)cs3)c2CC2CC2)cc1F	> 2500	> 2500
Cc1cc(C)c(C#Cc2cccc(-c3nn(-c4nc(C(=O)O)cs4)c(CC4CC4)c3Cc3ccc(S(N)(=O)=O)c(F)c3)c2)s1	> 2500	> 2500
NS(=O)(=O)c1ccc(Cc2c(-c3cccc(C#Cc4ccc(Cl)s4)c3)nn(-c3nc(C(=O)O)cs3)c2CC2CC2)cc1F	> 2500	> 2500
NS(=O)(=O)c1ccc(Cc2c(-c3ccc(F)c(/C=C/C4CCCC4)c3)nn(-c3nc(C(=O)O)cs3)c2CC2CC2)cc1F	> 2500	> 2500
NS(=O)(=O)c1ccc(Cc2c(-c3ccc(F)c(C#CC4CCNCC4)c3)nn(-c3nc(C(=O)O)cs3)c2CC2CC2)cc1F	> 2500	> 2500
N#CC#Cc1cc(-c2nn(-c3nc(C(=O)O)cs3)c(CC3CC3)c2Cc2ccc(S(N)(=O)=O)c(F)c2)ccc1F	> 2500	> 2500
CC(C)CC#Cc1cc(-c2nn(-c3nc(C(=O)O)cs3)c(CC3CC3)c2Cc2ccc(S(N)(=O)=O)c(F)c2)ccc1F	> 2500	> 2500
NS(=O)(=O)c1ccc(Cc2c(-c3cccc(C#Cc4ccc(C5CCC5)s4)c3)nn(-c3nc(C(=O)O)cs3)c2CCC2CC2)cc1F	> 2500	> 2500
NS(=O)(=O)c1ccc(Cc2c(-c3ccc(F)c(C#CC4CC4)c3)nn(-c3nc(C(=O)O)cs3)c2CC2CC2)cc1F	> 2500	> 2500
NS(=O)(=O)c1ccc(Cc2c(-c3cccc(-c4ccccc4)c3)nn(-c3nc(C(=O)O)cs3)c2C2CC2(F)F)cc1 (stereo not drawn)	> 2500	> 2500
